Test results published in US11994512B2, “Single-cell genomic methods to generate ex vivo cell systems that recapitulate in vivo biology with improved fidelity” (Massachusetts Institute of Technology, priority 2018, dated 2024).

Tested on: intracellular proteome of ENR+CD and ENR organoids
Assay: LC-MS/MS TMT proteomics of ENR+CD versus ENR organoids
Type: cell-based, C57BL/6 mice
Description: Because PCs are highly secretory, protein-rich cells, Applicants sought to assess the total intracellular proteome between conditions through liquid chromatography mass spectrometry (LC-MS/MS)-based proteomics. Applicants quantified relative protein abundance across eight samples using isobaric mass tag labeling from four ENR and four ENR+CD samples (M1-1 through M2-2, first digit denotes biological donor, second digit denotes technical replicate) (FIG. 3A). Samples were processed and analyzed in a single 10-plex by LC-MS/MS (FIG. 9A).
To affirm the reproducibility of the associated proteins in the ENR+CD-enriched proteome, Applicants performed relative quantification within differentiation sets.
Mass spectrometry proteomics sample preparation, sequencing, and quantification. Organoid cell pellets were isolated from Matrigel with mechanical dissociation and washed (cold PBS 5X) to remove residual extracellular protein. Proteins were extracted from cell pellets with 8 M urea (Sigma), reduced with 5 mM DTT (Thermo Fisher Pierce) for 45 minutes, alkylated with 10 mM IAA (Sigma) for 45 minutes in the dark, and double digested with both Lysyl Endopeptidase “LysC” (Wako) and trypsin (Promega) overnight at RT. A small aliquot of cellular lysate was removed from each sample for protein quantification via the Pierce™ BCA Protein Assay Kit (Pierce). After proteolytic digestion, the samples were quenched using formic acid to a final concentration of 1.0% and subsequently desalted on 10 mg OASIS HLB solid phase columns (Waters).
The peptides were labeled with TMT-10 isobaric mass tag reagent according to manufacturer's instructions (ThermoFisher Scientific). The peptides were labeled at a 1:8 ratio of peptide to TMT reagent, followed by 1-hour incubation at RT with bench top shaking at 850 rpm. After incubation, a […] of labeled tryptic peptide was removed from each labeled condition, desalted with C18 stage tips, and analyzed via LC-MS/MS using a Thermo Fisher Q Exactive Plus Hybrid Mass Spectrometer (QE-Plus) coupled to a Thermo Fisher EASY-nLC 1000 liquid chromatograph to ensure isobaric label incorporation >95%. An additional 1.0 μg of labeled tryptic peptide was removed from each channel, mixed together, desalted on a C18 stage tip, and analyzed via LC-MS to ensure equal relative protein loads. During these quality control steps, the labeled peptides were stored, unquenched at −80° C.

B1: Q32NZ6 (protein, UniProt Q32NZ6 1-967, looked up)
chain: MSSFHQNSSYMEDADYPGYSGSRNHTHNYLETQDYPEFPGSQNNPGFHHPRSNPHSSGSRTNPDYPYFQEEPDYPGSLSNTVYQDTRSHPFSAHSRTRPDYESSIEPDYNDFRSESYHAGLPMEPDYPGSQSHPGFAGVGRSSMNYTGPRTNLGYLGSLEEPDYPGAQDNSYYHSGSRPHSNLPGSRRDAGYAGSRINSYPDDLGEPDYPGAENQPNSPRFYGKPDYPGAEEGDGYSSSKSLAVIRRGNGPFGMLGRRNEDYPEGIGMVSMEMAGDPRNGYVNPAYTRRISPVCPDRNLLLCAHDWHTSVQGQKLIASLIPMTTRDRIKTIRNQPRTMQEKRELRKIVDKEKNKQSHGILEANCCAQCLGSLSLTYRRTRNGLSELLNYITLWQKRFKVIGGKFGTSVLSYFSFLRWLLKFNIFSFVMNFSFIIIPQFTVGAKNTLQFTGLEFFTGAGYFGDTVMYYGFYTNSTIRHRMGGASYNMQLAYIFTIGACLVVCFFSLLFSMAKYFRNNFINPHIYSRGIAKLIFCWDFTVTHEKAVKLKQKNLSTEIRENLSELRQENYRLTFNQQLTRFSAHVAAWLVSTGVTAACCVAVYYLAEYNSEFLKTHRNPGAVLLLPFVVSCINLAVPRFYSMFRLVERYEIPRQEVYVLLVRNIFLKISIVGILCYYWLNIVALSGEECWETLIGQDIYRLLLMDFVFSLADSLLGEFLRRLIGMKFTSLSLQEFDIARNVLELIYAQTLTWLGIFFCPLLPFIQMITLFIMFYVKNVSLMMNFQPPSKAWRASQMITFFIFLLFFPSFTGVLCTLAITIWRLKPSADCGPFRGLPSFIQSIYSWIDTLSRRPGYLWVVWIYQNLIGSVHFFFILTLIVLIITYLYWQITEGRKVMIRLLHEQIINEGKDKMFLIEKLTKLQDMEKRVNPSALDLERREVEPQIPLHLEELGAAPDLRLRRSAQEENPIA
modifications: full-length
Protein abundance, ENR+CD versus ENR organoids, aggregate of the four sample pairs
  Average logFC: 1.252
Protein abundance, ENR+CD versus ENR organoids, replicate M1-1, log2 ratio
  M1-1 Log2 Median Normalized: 1.76
Protein abundance, ENR+CD versus ENR organoids, replicate M1-2, log2 ratio
  M1-2 Log2 Median Normalized: 1.111
Protein abundance, ENR+CD versus ENR organoids, replicate M2-1, log2 ratio
  M2-1 Log2 Median Normalized: 1.2165
Protein abundance, ENR+CD versus ENR organoids, replicate M2-2, log2 ratio
  M2-2 Log2 Median Normalized: 1.252
Up = enriched in ENR+CD, down = enriched in ENR, FDR<0.05 and log fold change cut-off
  change: up
